Measured values taken from publication PMC4306950 (Marine Drugs, 2015).

The chains behind the UniProt entries cited, without tags or fusion partners.
UniProt P16388, whole entry: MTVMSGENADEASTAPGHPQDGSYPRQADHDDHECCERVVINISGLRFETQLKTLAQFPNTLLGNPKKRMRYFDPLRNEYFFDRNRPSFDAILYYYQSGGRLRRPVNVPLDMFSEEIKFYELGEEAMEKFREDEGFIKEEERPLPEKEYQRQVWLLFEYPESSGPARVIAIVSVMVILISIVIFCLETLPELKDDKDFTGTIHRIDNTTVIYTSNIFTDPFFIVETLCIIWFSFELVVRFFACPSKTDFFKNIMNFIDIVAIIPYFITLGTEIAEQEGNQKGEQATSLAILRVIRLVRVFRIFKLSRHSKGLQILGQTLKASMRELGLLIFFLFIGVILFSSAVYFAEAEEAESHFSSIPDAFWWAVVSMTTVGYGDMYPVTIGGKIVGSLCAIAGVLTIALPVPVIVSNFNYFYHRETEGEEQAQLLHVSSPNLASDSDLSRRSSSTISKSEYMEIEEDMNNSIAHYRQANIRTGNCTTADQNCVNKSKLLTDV
UniProt P16390, whole entry: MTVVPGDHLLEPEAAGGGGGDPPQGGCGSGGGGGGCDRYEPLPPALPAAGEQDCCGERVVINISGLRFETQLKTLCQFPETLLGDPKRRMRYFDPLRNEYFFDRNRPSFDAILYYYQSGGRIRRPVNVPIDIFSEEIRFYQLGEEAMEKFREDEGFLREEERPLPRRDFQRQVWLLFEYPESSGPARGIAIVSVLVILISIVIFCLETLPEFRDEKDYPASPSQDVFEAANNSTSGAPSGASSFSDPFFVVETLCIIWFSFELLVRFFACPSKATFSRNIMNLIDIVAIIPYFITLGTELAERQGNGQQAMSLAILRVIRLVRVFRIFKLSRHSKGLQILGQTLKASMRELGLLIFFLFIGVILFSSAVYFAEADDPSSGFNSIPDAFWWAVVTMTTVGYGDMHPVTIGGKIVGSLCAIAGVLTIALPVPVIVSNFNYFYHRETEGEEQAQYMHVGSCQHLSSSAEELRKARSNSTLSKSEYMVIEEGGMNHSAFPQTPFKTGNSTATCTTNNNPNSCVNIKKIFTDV
UniProt P22459, whole entry: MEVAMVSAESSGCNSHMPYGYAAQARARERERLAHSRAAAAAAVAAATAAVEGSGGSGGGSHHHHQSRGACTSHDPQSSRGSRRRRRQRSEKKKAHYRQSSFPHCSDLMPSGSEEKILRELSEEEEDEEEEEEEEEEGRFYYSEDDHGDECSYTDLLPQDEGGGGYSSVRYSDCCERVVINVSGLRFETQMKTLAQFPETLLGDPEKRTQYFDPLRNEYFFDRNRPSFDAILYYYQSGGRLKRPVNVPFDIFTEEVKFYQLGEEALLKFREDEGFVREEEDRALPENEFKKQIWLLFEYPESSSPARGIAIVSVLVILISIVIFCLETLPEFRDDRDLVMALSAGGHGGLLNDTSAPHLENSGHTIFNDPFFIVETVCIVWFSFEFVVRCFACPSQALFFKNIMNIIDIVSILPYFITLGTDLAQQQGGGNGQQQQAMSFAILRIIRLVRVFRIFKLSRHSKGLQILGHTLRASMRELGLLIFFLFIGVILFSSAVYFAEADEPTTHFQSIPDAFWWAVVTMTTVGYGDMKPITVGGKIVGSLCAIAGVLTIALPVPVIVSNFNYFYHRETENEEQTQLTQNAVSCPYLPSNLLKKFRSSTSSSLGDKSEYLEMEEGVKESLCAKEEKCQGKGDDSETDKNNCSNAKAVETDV
UniProt P17658, whole entry: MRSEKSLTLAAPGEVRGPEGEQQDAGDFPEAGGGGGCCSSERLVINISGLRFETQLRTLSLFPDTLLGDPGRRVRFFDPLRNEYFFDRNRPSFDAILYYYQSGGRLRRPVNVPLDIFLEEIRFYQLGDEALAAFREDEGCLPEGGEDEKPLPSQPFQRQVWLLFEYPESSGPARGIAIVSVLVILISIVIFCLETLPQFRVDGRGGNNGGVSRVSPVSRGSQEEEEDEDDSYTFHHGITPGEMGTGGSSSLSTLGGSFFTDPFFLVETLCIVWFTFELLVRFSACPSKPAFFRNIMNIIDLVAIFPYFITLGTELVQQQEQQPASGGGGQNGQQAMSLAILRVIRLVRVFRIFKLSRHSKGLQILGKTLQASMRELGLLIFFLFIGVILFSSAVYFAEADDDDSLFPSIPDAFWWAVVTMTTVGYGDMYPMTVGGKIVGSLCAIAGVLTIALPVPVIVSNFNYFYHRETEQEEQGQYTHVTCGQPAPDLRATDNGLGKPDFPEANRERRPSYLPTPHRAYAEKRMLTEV

How the values were obtained:
Assay type in all cases: cell-based
[1] = biological target: T1, mKv1.1 channels stably expressed in mouse L929 fibroblasts (Mus musculus, UniProt P16388); experiment: Whole-cell patch-clamp electrophysiology on Kv1.1; settings: for block of Kv1.1 at 100 nM: peptide 100 nM
T1 construct: expressed in transfected cells
Experimental: (§1) Mouse fibroblasts stably expressing homotetramers of Kv1.1 or Kv1.3 were patch-clamped in the whole-cell configuration and steady-state block was measured after addition of different concentrations of the peptides.
(§2) Chips averaged 2–3.5 MΩ and a holding potential of −80 mV was used for all recordings. Series resistance compensation of 80% was used when currents exceeded 2 nA. The external solution was normal Ringer solution containing (in mM): 160 NaCl, 4.5 KCl, 2 CaCl2, 1 MgCl2, 10 Hepes, pH 7.4, 310 mOsm. The internal solution contained (in mM): 145 KF, 10 HEPES, 10 EGTA (ethylene glycol tetraacetic acid), 2 MgCl2, pH 7.2, 300 mOsm. Currents were elicited by repeated 200 ms pulses to 40 mV applied at intervals of 30 s for Kv1.3 and 10 s for Kv1.1. IC50 values were determined by fitting the Hill equation to the reduction of area under the current curve measured at 40 mV in the presence of different concentrations of the peptides (GraphPad Prism software, La Jolla, CA, USA).

[2] = biological target: T2, mKv1.3 channels stably expressed in mouse L929 fibroblasts (Mus musculus, UniProt P16390); experiment: Whole-cell patch-clamp electrophysiology on Kv1.3; settings: for IC50: whole-cell patch-clamp, mKv1.3 in L929 fibroblasts, 200 ms pulses to 40 mV every 30 s, holding -80 mV, Hill fit, n = 3 to 6 cells per concentration
T2 construct: expressed in transfected cells
Experimental: as §1, §2

[3] = biological target: T3, Kv1.4 (mouse LTK fibroblasts stably transfected with Kv1.4) (Homo sapiens, UniProt P22459); experiment: Whole-cell patch-clamp electrophysiology on Kv1.4; settings: mouse LTK fibroblasts stably transfected with Kv1.4, peptide 100 nM
T3 construct: expressed in transfected cells

[4] = biological target: T4, hKv1.6 (HEK cells transiently transfected with hKv1.6:eGFP) (Homo sapiens, UniProt P17658); experiment: Whole-cell patch-clamp electrophysiology on Kv1.6; settings: patched 19 h after transfection, peptide 100 nM
T4 construct: expressed in transfected cells; host or cells: HEK cells, transient, Lipofectamine 2000 (plasmid a gift from Dr. Heike Wulff)
Experimental: The HEK cells were patched 19 h after transfection.
as §2

| SMILES | block of Kv1.1 at 100 nM [1] [% block at 100 nM] | effect on Kv1.1 currents at concentrations up to 100 nM [1] | IC50 [2] [nM] | block of Kv1.4 at 100 nM [3] [% block at 100 nM] | block of Kv1.6 at 100 nM [4] | loss of efficacy (potency) on Kv1.3 relative to ShK ([2]; from patch-clamp IC50 values) [fold] |
| --- | --- | --- | --- | --- | --- | --- |
| CCCC[C@@H]1NC(=O)[C@H](CO)NC(=O)[C@H](Cc2c[nH]cn2)NC(=O)[C@H](CCCCN)NC(=O)[C@@H]2CSSC[C@@H]3NC(=O)[C@H]([C@@H](C)O)NC(=O)[C@H](CCCCN)NC(=O)[C@H](CCCNC(=N)N)NC(=O)[C@H](CSSC[C@H](NC(=O)[C@H](CCCNC(=N)N)NC(=O)[C@H](CO)NC(=O)[C@H](CCCCN)NC(=O)[C@@H]4CCCN4C(=O)[C@H]([C@@H](C)CC)NC(=O)[C@H]([C@@H](C)O)NC(=O)[C@H](CC(=O)O)NC(=O)[C@H]([C@@H](C)CC)NC(=O)[C@@H](NC(=O)[C@H](CO)NC(=O)[C@H](CCCNC(=N)N)NC(=O)COCCOCCNC(=O)[C@@H](N)Cc4ccc(P(=O)(O)O)cc4)CSSC[C@@H](C(N)=O)NC(=O)[C@H]([C@@H](C)O)NC(=O)CNC3=O)C(=O)N[C@@H]([C@@H](C)O)C(=O)N[C@@H](C)C(=O)N[C@@H](Cc3ccccc3)C(=O)N[C@@H](CCCCN)C(=O)N2)NC(=O)[C@H](Cc2ccccc2)NC(=O)[C@H](CO)NC(=O)[C@H](CC(C)C)NC(=O)[C@H](CCCNC(=N)N)NC(=O)[C@H](Cc2ccc(O)cc2)NC(=O)[C@H](CCCCN)NC1=O [ShK-223] | <10 | neither ShK-223 nor ShK-224 had any effect | 0.025 ± 0.014 | <5 | <10% block at 100 nM | – |
| CC[C@H](C)[C@@H]1NC(=O)[C@@H](NC(=O)[C@H](CO)NC(=O)[C@H](CCCNC(=N)N)NC(=O)COCCOCCNC(=O)[C@@H](N)Cc2ccc(P(=O)(O)O)cc2)CSSC[C@@H](C(N)=O)NC(=O)[C@H]([C@@H](C)O)NC(=O)CNC(=O)[C@@H]2CSSC[C@@H]3NC(=O)[C@H](CCCCN)NC(=O)[C@H](Cc4ccccc4)NC(=O)[C@H](C)NC(=O)[C@H]([C@@H](C)O)NC(=O)[C@H](CSSC[C@H](NC(=O)[C@H](Cc4ccccc4)NC(=O)[C@H](CO)NC(=O)[C@H](CC(C)C)NC(=O)[C@H](CCCNC(=N)N)NC(=O)[C@H](Cc4ccc(O)cc4)NC(=O)[C@H](CCCCN)NC(=O)[C@H](CCSC)NC(=O)[C@H](CO)NC(=O)[C@H](Cc4c[nH]cn4)NC(=O)[C@H](CCCCN)NC3=O)C(=O)N[C@@H](CCCNC(=N)N)C(=O)N[C@@H](CCCCN)C(=O)N[C@@H]([C@@H](C)O)C(=O)N2)NC(=O)[C@H](CCCNC(=N)N)NC(=O)[C@H](CO)NC(=O)[C@H](CCCCN)NC(=O)[C@@H]2CCCN2C(=O)[C@H]([C@@H](C)CC)NC(=O)[C@H]([C@@H](C)O)NC(=O)[C@H](CC(=O)O)NC1=O [ShK-224] | <10 | neither ShK-223 nor ShK-224 had any effect | 0.164 ± 0.059 | <20 | ~25% | 12 |
